These results are taken from ChEMBL document CHEMBL5329150, “STING antagonists, synthesized via Povarov-Doebner type multicomponent reaction” (RSC Med Chem, 2023).

Assay type in all cases: cell-based
Experiment [1] concerns the target T1, Stimulator of interferon genes protein (Mus musculus) (UniProt Q3TBT3).
T1 sequence (whole entry): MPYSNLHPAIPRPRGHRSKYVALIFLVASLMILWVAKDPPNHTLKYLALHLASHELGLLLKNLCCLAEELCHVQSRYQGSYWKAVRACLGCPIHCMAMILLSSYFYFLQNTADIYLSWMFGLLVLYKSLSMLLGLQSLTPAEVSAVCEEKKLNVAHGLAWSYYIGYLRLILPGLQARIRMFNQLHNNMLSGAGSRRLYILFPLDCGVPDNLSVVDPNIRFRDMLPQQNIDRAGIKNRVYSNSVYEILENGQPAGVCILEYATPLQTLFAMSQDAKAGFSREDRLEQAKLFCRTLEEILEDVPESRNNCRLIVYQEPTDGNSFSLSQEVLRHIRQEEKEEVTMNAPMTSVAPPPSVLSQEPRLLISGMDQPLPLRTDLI
Nature of the experiment: Agonist activity at cGAS-STING pathway in mouse RAW-Blue ISG cells expressing SEAP reporter assessed as type 1 interferon production at 0.02 to 1 uM incubated for 24 hrs by QUANTI-Blue colorimetric assay. Conditions: dose 0.02-1 µM.

The target in experiment [2] is T1, Stimulator of interferon genes protein (Mus musculus). Nature of the experiment: Antagonist activity at cGAS-STING pathway in mouse RAW-Blue ISG cells expressing SEAP reporter assessed as reduction in phosphorylated STING level at 5 uM preincubated with compound for 4 hrs followed by 2'-3' cGAMP addition and measured after 3 hrs by Western blot analysis. Conditions: filed as antagonist, time 7.0 hrs. (In general: In western blotting, separated proteins are transferred to a membrane and probed.)

The target is the same in experiment [3]. The experiment in a line: Antagonist activity at cGAS-STING pathway in mouse RAW-Blue ISG cells expressing SEAP reporter assessed as reduction in interferon-beta mRNA level preincubated with compound for 6 hrs followed by 2'-3' cGAMP addition and measured after 3 hrs by RT-qPCR analysis. To be noted: filed as antagonist, dose 0.005-1 µM, time 9.0 hrs. A general note: In qPCR the cycle at which signal appears reflects the starting amount.

Experiment [4] shares this target. Nature of the experiment: Antagonist activity at cGAS-STING pathway in mouse RAW-Blue ISG cells expressing SEAP reporter assessed as reduction in phosphorylated IRF3 level at 5 uM preincubated with compound for 4 hrs followed by 2'-3' cGAMP addition and measured after 3 hrs by Western blot analysis. To be noted: filed as antagonist, time 7.0 hrs.
Experiment [5] has the same target. Nature of the experiment: Antagonist activity at cGAS-STING pathway in mouse RAW-Blue ISG cells expressing SEAP reporter assessed as reduction in type 1 interferon production preincubated with compound for 2 hrs followed by 2'-3' cGAMP addition and measured after 24 hrs by QUANTI-Blue colorimetric assay. To be noted: filed as antagonist, dose 0.02-1 µM, time 26.0 hrs.

Active and inactive are the calls of the source. No cut-off for these calls is given here.

For the molecule `c1n[nH]cc1-c1nc2ccc3[nH]ncc3c2c2c1CCCC2`, the result in experiment [1] was inactive. Further, the result in experiment [2] and in experiment [4] was Active. Also, the Activity result in experiment [3] and in experiment [5] was “Dose-Dependent Effect” each time.
